Values of other authors, collected in patent US20030178031A1, “Method for cancer pain treatment” (Du Pen, Inc., priority 1999, published 2003).

Conditions: human, in vivo

For Choline magnesium trisalicylate, the effect on platelets is listed as “minimal or no effect on platelets”.
